pIC50: −log10 of the molar value.
Columns and labels:
P2X7 = P2X7 (Homo sapiens (Human), UniProt Q99572); assay: Ca2+ flux (FLIPR) in 1321N1 cells expressing recombinant human P2X7 channel; format: cell-based; settings: 250 μM BzATP
Method: (§1) (A) Ca^2+ Flux: 1321N1 cells expressing the recombinant human, rat or mouse P2X7 channel was cultured in HyQ DME/(HyClone/Dulbecco's Modified Eagle Medium) high glucose supplemented with 10% Fetal Bovine Serum (FBS) and appropriate selection marker. Cells were seeded at a density of 25000 cells/well (96-well clear bottom black walled plates) in 100 μl volume/well. On the day of the experiment, cell plates were washed with assay buffer, containing (in mM): 130 NaCl, 2 KCl, 1 CaCl2, 1 MgCl2, 10 HEPES, 5 glucose; pH 7.40 and 300 mOs. After the wash, cells were loaded with the Calcium-4 dye (Molecular Device) and incubated in the dark for 60 minutes. Test compounds were prepared at 250× the test concentration in neat DMSO. Intermediate 96-well compound plates were prepared by transferring 1.2 μL of the compound into 300 μL of assay buffer. A further 3× dilution occurred when transferring 50 μL/well of the compound plate to 100 μL/well in the cell plate. Cells were incubated with test compounds and dye for 30 minutes. […] The fluorescence change was measured 180 seconds after adding the agonist.

By UniProt entry, the sequences of proteins in these tests, tags left out. Where a name states a change or a piece, a line headed by the entry shows the natural chain unless it says otherwise.
UniProt Q99572: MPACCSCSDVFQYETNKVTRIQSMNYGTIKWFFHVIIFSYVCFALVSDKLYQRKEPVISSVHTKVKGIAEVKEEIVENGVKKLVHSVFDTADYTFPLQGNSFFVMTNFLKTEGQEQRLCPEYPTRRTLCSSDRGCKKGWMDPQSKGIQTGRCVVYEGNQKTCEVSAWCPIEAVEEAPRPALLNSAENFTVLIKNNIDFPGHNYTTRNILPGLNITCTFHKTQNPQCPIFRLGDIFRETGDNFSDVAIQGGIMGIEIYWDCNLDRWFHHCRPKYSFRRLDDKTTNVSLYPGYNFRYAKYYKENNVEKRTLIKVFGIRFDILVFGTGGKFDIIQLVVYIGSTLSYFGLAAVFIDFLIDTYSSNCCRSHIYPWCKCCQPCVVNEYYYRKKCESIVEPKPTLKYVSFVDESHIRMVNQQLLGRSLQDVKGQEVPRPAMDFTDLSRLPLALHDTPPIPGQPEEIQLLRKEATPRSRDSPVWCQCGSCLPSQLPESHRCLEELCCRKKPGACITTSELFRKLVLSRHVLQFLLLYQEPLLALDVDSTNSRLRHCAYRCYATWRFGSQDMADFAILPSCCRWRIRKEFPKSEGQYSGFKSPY
UniProt Q64663: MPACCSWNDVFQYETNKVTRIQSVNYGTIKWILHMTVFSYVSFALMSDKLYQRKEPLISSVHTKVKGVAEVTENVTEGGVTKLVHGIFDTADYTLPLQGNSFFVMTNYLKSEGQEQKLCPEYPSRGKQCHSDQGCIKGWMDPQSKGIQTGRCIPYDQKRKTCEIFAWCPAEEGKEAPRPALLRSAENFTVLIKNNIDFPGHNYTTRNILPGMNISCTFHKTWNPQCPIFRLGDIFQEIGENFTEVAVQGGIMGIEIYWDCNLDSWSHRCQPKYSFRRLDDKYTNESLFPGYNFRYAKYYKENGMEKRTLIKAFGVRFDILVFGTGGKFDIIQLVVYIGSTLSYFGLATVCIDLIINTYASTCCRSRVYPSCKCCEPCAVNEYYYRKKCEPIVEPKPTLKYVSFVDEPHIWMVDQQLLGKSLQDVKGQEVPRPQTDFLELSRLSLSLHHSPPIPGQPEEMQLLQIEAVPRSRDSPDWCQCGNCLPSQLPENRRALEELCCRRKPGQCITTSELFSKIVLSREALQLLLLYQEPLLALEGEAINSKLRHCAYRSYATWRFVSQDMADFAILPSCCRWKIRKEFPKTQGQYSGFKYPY

rat P2X7 = rat P2X7 (Rattus norvegicus (Rat), UniProt Q64663); assay: Ca2+ flux (FLIPR) in 1321N1 cells expressing recombinant rat P2X7 channel; format: cell-based; settings: 250 μM BzATP
Method: as §1

**Q.** How did the pIC50 (P2X7) turn out when `CC[C@H]1Cn2c(nnc2-c2cccnc2)C(=O)N1Cc1cccc(C(F)(F)F)c1Cl` [Example 73, (6S)-7-[2-Chloro-3-(trifluoromethyl)benzyl]-6-ethyl-3-pyridin-3-yl-6,7-dihydro[1,2,4]triazolo[4,3-a]pyrazin-8(5H)-one] was run?
**A.** 8.85

**Q.** `C[C@H]1Cn2c(nnc2-c2ccncc2)C(=O)N1Cc1cccc(C(F)(F)F)c1Cl` [Example 47, (6S)-7-[2-Chloro-3-(trifluoromethyl)benzyl]-6-methyl-3-pyridin-4-yl-6,7-dihydro[1,2,4]triazolo[4,3-a]pyrazin-8(5H)-one] was tested. Which pIC50 (rat P2X7) did it give?
**A.** 4.84

**Q.** `C[C@H](c1ccccc1)N1C(=O)c2nnc(-c3cnccn3)n2C[C@@H]1C` (relative stereo) [Example 94, (6S)-6-Methyl-7-[(1R*)-1-phenylethyl]-3-pyrazin-2-yl-6,7-dihydro[1,2,4]triazolo[4,3-a]pyrazin-8(5H)-one] was tested. Which pIC50 (P2X7) did it give?
**A.** 7.06

**Q.** And the pIC50 (rat P2X7)?
**A.** < 5.00

**Q.** With `O=C1c2nnc(-c3cnccn3)n2CC(C2CC2)N1Cc1cccc(C(F)(F)F)c1Cl` (racemic) [Example 61, (±)-7-[2-Chloro-3-(trifluoromethyl)benzyl]-6-cyclopropyl-3-pyrazin-2-yl-6,7-dihydro[1,2,4]triazolo[4,3-a]pyrazin-8(5H)-one] as the molecule, how does the pIC50 (P2X7) read?
**A.** 8.40

**Q.** How did the pIC50 (P2X7) turn out when `C[C@H]1Cn2c(nnc2-c2ccncn2)C(=O)N1Cc1cccc(C(F)(F)F)c1Cl` [Example 33, (6S)-7-[2-Chloro-3-(trifluoromethyl)benzyl]-6-methyl-3-pyrimidin-4-yl-6,7-dihydro[1,2,4]triazolo[4,3-a]pyrazin-8(5H)-one] was run?
**A.** 8.37

**Q.** What about the pIC50 (rat P2X7) of the same molecule?
**A.** 4.84

**Q.** How did the pIC50 (P2X7) turn out when `O=C1c2nnc(-c3ncccn3)n2C[C@H](C2CC2)N1Cc1cccc(C(F)(F)F)c1Cl` (single isomer, unassigned) [Example 66, (6S*)-7-[2-Chloro-3-(trifluoromethyl)benzyl]-6-cyclopropyl-3-pyrimidin-2-yl-6,7-dihydro[1,2,4]triazolo[4,3-a]pyrazin-8(5H)-one] was run?
**A.** 9.00

**Q.** With `C[C@H]1Cn2c(nnc2-c2ccc(Cl)cn2)C(=O)N1Cc1cccc(C(F)(F)F)c1Cl` [Example 56, (6S)-3-(5-Chloropyridin-2-yl)-7-[2-chloro-3-(trifluoromethyl)benzyl]-6-methyl-6,7-dihydro[1,2,4]triazolo[4,3-a]pyrazin-8(5H)-one] as the molecule, how does the pIC50 (P2X7) read?
**A.** 7.18

**Q.** What about the pIC50 (rat P2X7) of the same molecule?
**A.** 6.08

**Q.** `O=C1c2nnc(-c3cnccn3)n2CCN1Cc1cccc(Cl)c1Cl` [Example 2, 7-(2,3-Dichlorobenzyl)-3-pyrazin-2-yl-6,7-dihydro[1,2,4]triazolo[4,3-a]pyrazin-8(5H)-one] was tested. Which pIC50 (P2X7) did it give?
**A.** 6.36

**Q.** And the pIC50 (rat P2X7)?
**A.** 5.06

**Q.** Which results are given for `C[C@H]1Cn2c(nnc2-c2cccc(C(F)(F)F)n2)C(=O)N1Cc1cccc(C(F)(F)F)c1Cl` [Example 55, (6S)-7-[2-Chloro-3-(trifluoromethyl)benzyl]-6-methyl-3-[6-(trifluoromethyl)pyridin-2-yl]-6,7-dihydro[1,2,4]triazolo[4,3-a]pyrazin-8(5H)-one]?
**A.** pIC50 (P2X7): 6.50; pIC50 (rat P2X7): 6.13

**Q.** With `O=C1c2nnc(-c3ccc(F)cn3)n2CC(C2CC2)N1Cc1cccc(C(F)(F)F)c1Cl` (racemic) [Example 69, (±)-7-[2-Chloro-3-(trifluoromethyl)benzyl]-6-cyclopropyl-3-(5-fluoropyridin-2-yl)-6,7-dihydro[1,2,4]triazolo[4,3-a]pyrazin-8(5H)-one] as the molecule, how does the pIC50 (P2X7) read?
**A.** 7.70

**Q.** `C[C@H]1Cn2c(nnc2-c2cocn2)C(=O)N1Cc1cccc(C(F)(F)F)c1Cl` [Example 21, (6S)-7-[2-Chloro-3-(trifluoromethyl)benzyl]-6-methyl-3-(1,3-oxazol-4-yl)-6,7-dihydro[1,2,4]triazolo[4,3-a]pyrazin-8(5H)-one] was tested. Which pIC50 (P2X7) did it give?
**A.** > 9.00

**Q.** `Cc1nc(-c2nnc3n2C[C@H](C)N(Cc2cccc(C(F)(F)F)c2Cl)C3=O)cs1` [Example 36, (6S)-7-[2-Chloro-3-(trifluoromethyl)benzyl]-6-methyl-3-(2-methyl-1,3-thiazol-4-yl)-6,7-dihydro[1,2,4]triazolo[4,3-a]pyrazin-8(5H)-one] was tested. Which pIC50 (rat P2X7) did it give?
**A.** 5.97

**Q.** How did the pIC50 (rat P2X7) turn out when `O=C1c2nnc(-c3cnccn3)n2C[C@H](C2CC2)N1Cc1cccc(C(F)(F)F)c1Cl` (single isomer, unassigned) [Example 63] was run?
**A.** 8.02

**Q.** How did the pIC50 (rat P2X7) turn out when `C[C@H]1Cn2c(nnc2-c2cncs2)C(=O)N1Cc1cccc(C(F)(F)F)c1Cl` [Example 37, (6S)-7-[2-Chloro-3-(trifluoromethyl)benzyl]-6-methyl-3-(1,3-thiazol-5-yl)-6,7-dihydro[1,2,4]triazolo[4,3-a]pyrazin-8(5H)-one] was run?
**A.** 5.92

**Q.** `C[C@H]1Cn2c(nnc2-c2nccc(C(F)(F)F)n2)C(=O)N1Cc1cccc(C(F)(F)F)c1Cl` [Example 54, (6S)-7-[2-chloro-3-(trifluoromethyl)benzyl]-6-methyl-3-[4-(trifluoromethyl)pyrimidin-2-yl]-6,7-dihydro[1,2,4]triazolo[4,3-a]pyrazin-8(5H)-one] was tested. Which pIC50 (P2X7) did it give?
**A.** 8.77

**Q.** With `O=C1c2nnc(-c3ncccn3)n2C[C@@H](C2CC2)N1Cc1cccc(C(F)(F)F)c1Cl` (single isomer, unassigned) [Example 65, (6R*)-7-[2-Chloro-3-(trifluoromethyl)benzyl]-6-cyclopropyl-3-pyrimidin-2-yl-6,7-dihydro[1,2,4]triazolo[4,3-a]pyrazin-8(5H)-one] as the molecule, how does the pIC50 (P2X7) read?
**A.** 7.74

**Q.** `O=C1c2nnc(-c3ncccn3)n2CC(C2CC2)N1Cc1cccc(C(F)(F)F)c1Cl` (racemic) [Example 64, (±)-7-[2-Chloro-3-(trifluoromethyl)benzyl]-6-cyclopropyl-3-pyrimidin-2-yl-6,7-dihydro[1,2,4]triazolo[4,3-a]pyrazin-8(5H)-one] was tested. Which pIC50 (P2X7) did it give?
**A.** 8.85

**Q.** With `Cc1ncsc1-c1nnc2n1C[C@H](C)N(Cc1cccc(C(F)(F)F)c1Cl)C2=O` [Example 40, (6S)-7-[2-Chloro-3-(trifluoromethyl)benzyl]-6-methyl-3-(4-methyl-1,3-thiazol-5-yl)-6,7-dihydro[1,2,4]triazolo[4,3-a]pyrazin-8(5H)-one] as the molecule, how does the pIC50 (P2X7) read?
**A.** 7.98

**Q.** `C[C@H]1Cn2c(nnc2C2CCN(C(=O)OC(C)(C)C)C2)C(=O)N1Cc1cccc(C(F)(F)F)c1Cl` (stereo partly drawn) [Example 58, (6S)-tert-Butyl3-{7-[2-chloro-3-(trifluoromethyl)benzyl]-6-methyl-8-oxo-5,6,7,8-tetrahydro[1,2,4]triazolo[4,3-a]pyrazin-3-yl}pyrrolidine-1-carboxylate] was tested. Which pIC50 (P2X7) did it give?
**A.** 4.91

**Q.** How did the pIC50 (P2X7) turn out when `O=C1c2nnc(-c3cccnc3)n2CC(C2CC2)N1Cc1cccc(C(F)(F)F)c1Cl` (racemic) [Example 67, (±)-7-[2-Chloro-3-(trifluoromethyl)benzyl]-6-cyclopropyl-3-pyridin-3-yl-6,7-dihydro[1,2,4]triazolo[4,3-a]pyrazin-8(5H)-one] was run?
**A.** 8.37

**Q.** `Cc1cncc(-c2nnc3n2C[C@H](C)N(Cc2cccc(C(F)(F)F)c2Cl)C3=O)c1` [Example 57, (6S)-7-[2-Chloro-3-(trifluoromethyl)benzyl]-6-methyl-3-(5-methylpyridin-3-yl)-6,7-dihydro[1,2,4]triazolo[4,3-a]pyrazin-8(5H)-one] was tested. Which pIC50 (rat P2X7) did it give?
**A.** < 5.00

**Q.** With `O=C1c2nnc(-c3cc[nH]n3)n2CC(C2CC2)N1Cc1cccc(C(F)(F)F)c1Cl` (racemic) [Example 68, (±)-7-[2-Chloro-3-(trifluoromethyl)benzyl]-6-cyclopropyl-3-(1H-pyrazol-3-yl)-6,7-dihydro[1,2,4]triazolo[4,3-a]pyrazin-8(5H)-one] as the molecule, how does the pIC50 (P2X7) read?
**A.** 8.96
